Source: US20240400579A1, “SPIROCYCLIC MODULATORS OF CHOLESTEROL BIOSYNTHESIS AND THEIR USE FOR PROMOTING REMYELINATION” (GENENTECH, INC., priority 2021, published 2024)

Assays:
EpiSC-derived OPCs = experiment: In vitro phenotypic screening of OPCs, MBP high-content imaging; conditions: read-out: mOPC EC50; percentage of MBP+ oligodendrocytes; 3 days; 0.5 nM to 1000 nM; listed as 124A*
[1] = tested on: zymostenol accumulation in EpiSC-derived OPCs (EBP); experiment: GC/MS-based sterol profiling, zymostenol accumulation; conditions: read-out: mZymo GCMS EC50, 24 hours, 8 doses from 0.15 nM to 333 nM, listed as 124A*

CC(Cc1ccc(C2CCCCO2)c(Cl)c1)CN1CCC2(C1)CS(=O)(=O)C2 (single isomer, unassigned)
pEC50 (EpiSC-derived OPCs): 7.49
pEC50 [1]: 8.21

pEC50: −log10 of the molar value.
